# Data from paper PMC3189208 (PLoS ONE, 2011).
# Protein sequences, listed by entry. Tags and fused reporters are not part of them.
# UniProt P35372, whole entry: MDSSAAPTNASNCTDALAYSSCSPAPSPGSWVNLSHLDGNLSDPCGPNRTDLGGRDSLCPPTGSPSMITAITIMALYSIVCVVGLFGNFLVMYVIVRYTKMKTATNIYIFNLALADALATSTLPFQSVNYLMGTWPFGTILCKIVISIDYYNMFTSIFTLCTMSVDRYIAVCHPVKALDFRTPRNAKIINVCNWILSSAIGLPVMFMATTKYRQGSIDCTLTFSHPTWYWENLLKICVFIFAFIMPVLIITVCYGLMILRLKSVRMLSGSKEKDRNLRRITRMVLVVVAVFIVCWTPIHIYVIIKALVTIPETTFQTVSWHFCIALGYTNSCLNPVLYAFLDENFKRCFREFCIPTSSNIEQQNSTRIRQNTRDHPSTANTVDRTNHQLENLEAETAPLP
# Experiments:
# [1] = molecular target: T1, human mu opioid receptor (MOR1) in HEK-MOR cells (Homo sapiens, UniProt P35372)
# [2] = molecular target: T1, human mu opioid receptor (MOR1) in HEK-MOR cells; assay type: cell-based; design: FLAG; expressed in transfected cells
# [3] = molecular target: T1, human mu opioid receptor (MOR1) in HEK-MOR cells; assay type: cell-based; design: FLAG; expressed in transfected cells; remark: listed apart in the source
# [4] = molecular target: T1, human mu opioid receptor (MOR1) in HEK-MOR cells; assay type: cell-based; design: FLAG; expressed in transfected cells; remark: listed apart in the source
# [5] = molecular target: T1, human mu opioid receptor (MOR1) in HEK-MOR cells; assay type: cell-based; design: FLAG; expressed in transfected cells; remark: listed apart in the source
Compound,"subcluster in heat map (super cluster 1 antagonists, 2 agonists) [1]",bias between DMR response and whole cell cAMP response [3],further results
Oc1ccc2c3c1O[C@H]1c4[nH]c5ccccc5c4C[C@@]4(O)[C@@H](C2)N(CC2CC2)CC[C@]314 [naltrindole],subcluster 1.2,,ligand-induced DMR after DAMGO pretreatment [2]: full N-DMR response
C[C@@H](NC(=O)[C@@H](N)Cc1ccc(O)cc1)C(=O)NCC(=O)N(C)[C@@H](Cc1ccccc1)C(=O)NCCO [DAMGO],subcluster 2.1,,
Oc1ccc2c3c1O[C@H]1c4c(c5ccccc5n4Cc4ccccc4)C[C@@]4(O)[C@@H](C2)N(CC2CC2)CC[C@]314 [N-benzylnaltrindole],subcluster 1.3,,
Oc1ccc2c3c1O[C@H]1c4[nH]c5c(c4C[C@@]4(O)[C@@H](C2)N(CC2CC2)CC[C@]314)C[C@@]1(O)[C@H]2Cc3ccc(O)c4c3[C@@]1(CCN2CC1CC1)[C@H]5O4 [nor-binaltorphine],subcluster 1.3,,
"CN(C(=O)Cc1ccc(Cl)c(Cl)c1)[C@H](CN1CCCC1)c1cccc(N=C=S)c1 [DIPPA, 2-(3,4-Dichlorophenyl)-N-methyl-N-[(1S)-1-(3-isothiocyanatophenyl)-2-(1-pyrrolidinyl)ethyl]acetamide]",subcluster 2.2,,
C=CCN1CC[C@]23CCCC[C@H]2[C@H]1Cc1ccc(O)cc13 [levallorphan],subcluster 1.1,biased towards cAMP,pharmacology at the MOR concluded from DMR profiling [1]: partial agonists for the MOR; ligand-induced DMR after DAMGO pretreatment [2]: full N-DMR response
COC(=O)/C=C/C(=O)N[C@@H]1CC[C@@]2(O)[C@H]3Cc4ccc(O)c5c4[C@@]2(CCN3CC2CC2)[C@H]1O5 [β-funaltrexamine],subcluster 1.1,,"maximum DMR response compared with DAMGO [4]: smaller maximum response than DAMGO; EC50 ([4]; read-out: EC50 (DMR, monophasic dose response)): 0.1 ± 0.02 nM; ligand-induced DMR after DAMGO pretreatment [2]: full N-DMR response"
COc1cccc(C2(O)CCCCC2CN(C)C)c1 (stereo not drawn) [tramadol],subcluster 2.3,biased towards DMR,
DSLET,subcluster 2.1,,pharmacology at the MOR concluded from DMR profiling [1]: full agonist for the MOR
COc1ccc2c3c1O[C@H]1[C@@H](O)C=C[C@H]4[C@@H](C2)NCC[C@@]341 [(-)-norcodeine],subcluster 2.2,biased towards cAMP,
O=C(Cc1ccc(Cl)c(Cl)c1)N1CCCCC1CN1CCCC1 (stereo not drawn) [BRL-52537],subcluster 2.2,biased towards cAMP,
C=CCN1CCC2(C)c3cc(O)ccc3CC1C2C (stereo not drawn) [SKF10047],subcluster 1.1,biased towards cAMP,
C=CC[N+]1(C)CC[C@]23c4c5ccc(O)c4O[C@H]2C(=O)CC[C@@]3(O)[C@H]1C5 (stereo partly drawn) [naloxone methionone],subcluster 1.2,,
O=C1/C(=C/c2ccccc2)C[C@@]2(O)[C@H]3Cc4ccc(O)c5c4[C@@]2(CCN3CC2CC2)[C@H]1O5 [BNTX],,,pharmacology at the MOR concluded from DMR profiling [1]: antagonist; DMR produced by ligand in HEK-MOR cells [5]: N-DMR; DAMGO-induced DMR after ligand pretreatment [2]: inhibited; ligand-induced DMR after CTOP pretreatment [2]: only slightly altered; ligand-induced DMR after DAMGO pretreatment [2]: N-DMR
nociceptin 1-13: ORL1 agonist,subcluster 2.3,biased towards DMR,
COC(=O)[C@@H]1C[C@H](OC(C)=O)C(=O)[C@H]2[C@@]1(C)CC[C@H]1C(=O)O[C@H](c3ccoc3)C[C@]21C [salvinorin A],subcluster 1.3,,pharmacology at the MOR concluded from DMR profiling [1]: partial agonist activity; DMR produced by ligand in HEK-MOR cells [5]: noticeable P-DMR signal; CTOP-induced DMR after ligand pretreatment [2]: N-DMR response
